This note sets out measurements from ChEMBL document CHEMBL4422615, “Novel non-xanthine antagonist of the A2B adenosine receptor: From HTS hit to lead structure” (Eur J Med Chem, 2019).

Holding throughout (assay type): cell-based
Test [1] is filed under the species Homo sapiens. In words: Selectivity index, ratio of IC50 for human A1 adenosine receptor expressed in CHO cell membranes to IC50 for human A2B adenosine receptor expressed in HEK293 cell membranes.
Test [2] is filed under the species Homo sapiens. In words: Selectivity index, ratio of IC50 for human A3 adenosine receptor expressed in HEK293 cell membranes to IC50 for human A2B adenosine receptor expressed in HEK293 cell membranes.
For test [3], the species on record is Homo sapiens. In words: Selectivity index, ratio of IC50 for human A2A adenosine receptor expressed in HEK293 cell membranes to IC50 for human A2B adenosine receptor expressed in HEK293 cell membranes.

Structures are written as SMILES.

As to `CCn1c(=O)c2c(C)c(C(=O)N3CCC(O)CC3)sc2n(CCC(F)(F)F)c1=O`, the Ratio IC50 lay in the range of 20 to 24 in the test listed under Homo sapiens [1], 10 to 100 in the test listed under Homo sapiens [2] and 13 to 16 in the test listed under Homo sapiens [3].
